Source: patent US20070026402A1, “Genetic marker of response to atypical antipsychotics and antidepressants methods for use thereof” (priority 2003, published 2007)

Assays:
[1] = tested on: schizophrenic patients
[2] = tested on: schizophrenic patients; settings: A1 subjects
[3] = tested on: Serum prolactin

SMILES	ESRS Parkinsonism Physician's Examination score, mean ([1]; A1 high dose (median dose or above), n=11)	ESRS Parkinsonism Physician's Examination score, mean ([1]; A1 low dose (below median dose), n=15)	ESRS Parkinsonism Physician's Examination score, mean ([1]; A2 high dose (median dose or above), n=13)	ESRS Parkinsonism Physician's Examination score, mean ([1]; A2 low dose (below median dose), n=8)	ESRS Parkinsonism, Dystonia and Dyskinesia: Questionnaire and Behavioral scale, mean score ([2]; high dose)	ESRS Parkinsonism, Dystonia and Dyskinesia: Questionnaire and Behavioral scale, mean score ([2]; low dose)	Patients on this medication in the hyperprolactinemic range ([3]; 430 mU/l in men, 560 mU/l in women) [%]	Number of patients exceeding hyperprolactinemia cut-off levels ([3]; 430 mU/l in men, 560 mU/l in women, 49 patients on Risperidone)	Prolactin levels compared to Typical antipsychotics ([3]; FIG. 3, P=0.004)	Number of patients exceeding hyperprolactinemia cut-off levels ([3]; Clozapine and Olanzapine patients combined)	Hyperprolactinemic patients as share of the sample ([3]; Clozapine and Olanzapine patients combined, sample of 144) [%]	Prolactin levels compared to Clozapine treatment ([3]; FIG. 3, P=0.033)
Cc1nc2n(c(=O)c1CCN1CCC(c3noc4cc(F)ccc34)CC1)CCCC2 [Risperidone]	2.18	4.53	8.54	2.63	1.27	4.07	81	40	significantly higher levels of prolactin	–	–	–
Cc1cc2c(s1)Nc1ccccc1N=C2N1CCN(C)CC1 [Olanzapine]	–	–	–	–	–	–	–	–	–	7	5	significantly higher prolactin levels

Like-named read-outs stand apart in the source and are kept apart here.
